Ab-14 heavy chain CDR variants: yeast mating affinities

Source: Engelhart et al. 2022 (doi:10.1038/s41597-022-01779-4), MIT Lincoln Laboratory and A-Alpha Bio; data file from the FLAb repository.

Antigen: PDVDLGDISGINAS, a 14-residue peptide of the SARS-CoV-2 spike HR2 region.

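The parent was found by panning a naive human phage display library on the peptide. In library AAYL49, one, two or three CDR residues were substituted; doubles and triples were drawn at random. The scFvs were displayed on barcoded MATa yeast, the peptide on MATalpha yeast. After mating in shaken culture at 30 °C for 16 h, diploids were selected and their barcode pairs sequenced. Scores were corrected for input abundance and mapped to Kd with protein pairs of known affinity run in the same pool. There are three technical replicates.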

Each scFv is VH, three GGGGS repeats, VL, as in the parent Ab-14, and differs from it in the CDRs of the heavy chain only.
VH: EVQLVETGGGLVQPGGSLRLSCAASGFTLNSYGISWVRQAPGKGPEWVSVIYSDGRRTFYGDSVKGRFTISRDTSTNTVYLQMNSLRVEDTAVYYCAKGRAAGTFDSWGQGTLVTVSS
VL: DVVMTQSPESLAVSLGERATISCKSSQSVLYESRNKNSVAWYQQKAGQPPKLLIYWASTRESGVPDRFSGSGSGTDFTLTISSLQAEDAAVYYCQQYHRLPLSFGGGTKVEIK

Positions count from residue 1 of the parent VH; G61H puts H in place of G. Scale: log10 of Kd in nM, estimated from mating counts; low values are strong binders. The mean shown is taken over the replicates in which the pair was detected. "no signal" means that the variant was in the library but no mating with the target was seen in any replicate; the authors take this as a sign of poor binding, and no number exists. The list is sorted by this average, lowest first, undetected variants last. Three control strains display no target. For library AAYL49, 15% of the pairings with them gave a signal, with a median of 4.06 and one signal in twenty below 2.83, so weak values seen in few replicates may be background. Also given: how often the same scFv was detected with the empty control strains.

| # | changes | log10 Kd (nM), mean | seen in | signal with controls |
|---|---|---|---|---|
| 1 | G61H/T104E/S107D | 0.26 | 3 of 3 | 0 of 9 |
| 2 | S31M/R56E/F59S | 0.50 | 3 of 3 | 0 of 9 |
| 3 | F27E/A101N/S107Q | 1.27 | 3 of 3 | 0 of 9 |
| 4 | N30S/K65N/F105A | 1.52 | 3 of 3 | 1 of 9 |
| 5 | V50I/S53H/G61L | 1.67 | 3 of 3 | 0 of 9 |
| 6 | S31N/G61L/T104W | 1.74 | 3 of 3 | 3 of 9 |
| 7 | F59V/A101S/D106Q | 1.78 | 3 of 3 | 0 of 9 |
| 8 | R57K/R100H/F105K | 1.90 | 3 of 3 | 0 of 9 |
| 9 | N30P/S31M | 1.94 | 3 of 3 | 0 of 9 |
| 10 | S31T/Y60T/V64W | 2.48 | 3 of 3 | 0 of 9 |
| 11 | T28I/N30A/R57T | 2.62 | 2 of 3 | 0 of 9 |
| 12 | S53H/A101N/F105Q | 2.71 | 3 of 3 | 0 of 9 |
| 13 | L29T/N30A/G61D | 2.90 | 3 of 3 | 2 of 9 |
| 14 | G26W/F27Y/S63M | 2.97 | 1 of 3 | 0 of 9 |
| 15 | T28K/V64I/T104D | 2.98 | 3 of 3 | 1 of 9 |
| 16 | S63W/K65R/S107L | 2.99 | 1 of 3 | 0 of 9 |
| 17 | V50K/G61C/T104C | 3.10 | 1 of 3 | 4 of 9 |
| 18 | L29P/R56A/F105V | 3.12 | 1 of 3 | 0 of 9 |
| 19 | L29T/G61P/D106H | 3.17 | 1 of 3 | 0 of 9 |
| 20 | G26P/G55P/F59D | 3.18 | 1 of 3 | 1 of 9 |
| 21 | I51E/G55V/A101M | 3.22 | 1 of 3 | 1 of 9 |
| 22 | Y52W/R57H/T58R | 3.23 | 2 of 3 | 3 of 9 |
| 23 | F27G/T28G/F59Q | 3.25 | 2 of 3 | 3 of 9 |
| 24 | S35P/D54N/R100V | 3.42 | 1 of 3 | 0 of 9 |
| 25 | Y52S/R100A/T104Q | 3.43 | 3 of 3 | 1 of 9 |
| 26 | F27A/R57V/A101D | 3.64 | 1 of 3 | 2 of 9 |
| 27 | I51G/R56E/D62Y | 3.75 | 1 of 3 | 3 of 9 |
| 28 | L29I/S53I/G55W | 3.85 | 1 of 3 | 1 of 9 |
| 29 | D54V/G55E/G99M | 4.16 | 1 of 3 | 1 of 9 |
| 30 | D54E/T104K | 4.32 | 1 of 3 | 1 of 9 |
| 31 | L29E/Y32N | 4.38 | 2 of 3 | 3 of 9 |
| 32 | D54N/R56I/K65T | 4.41 | 1 of 3 | 0 of 9 |
| 33 | S31W/Y32A/R57Y | 4.43 | 2 of 3 | 2 of 9 |
| 34 | I34C/I51G | 4.65 | 2 of 3 | 5 of 9 |
| 35 | N30W/I51R | 4.66 | 1 of 3 | 1 of 9 |
| 36 | T28N/G55L/S107H | 4.76 | 3 of 3 | 5 of 9 |
| 37 | N30F/V50K/K65D | 4.83 | 1 of 3 | 1 of 9 |
| 38 | S31T/G33D/G99R | 4.93 | 1 of 3 | 1 of 9 |
| 39 | F27I/T28S/V50G | 4.95 | 1 of 3 | 2 of 9 |

Continued, with the values leading:

| # | log10 Kd (nM), mean | seen in | signal with controls | changes |
|---|---|---|---|---|
| 40 | 5.06 | 3 of 3 | 7 of 9 | F59T/A101R/D106R |
| 41 | 5.41 | 3 of 3 | 6 of 9 | N30C/G33D/D62V |
| 42 | 5.90 | 2 of 3 | 2 of 9 | Y52T/G61T |
| 43 | 5.98 | 1 of 3 | 1 of 9 | Y32H/G33D/V64L |
| 44 | 6.15 | 1 of 3 | 2 of 9 | S31I/G61R/F105C |
| 45 | no signal | 0 of 3 | 0 of 9 | Y52I/V64L |
| 46 | no signal | 0 of 3 | 3 of 9 | S31L/I34D/D106T |
| 47 | no signal | 0 of 3 | 0 of 9 | L29I/G99I/A101L |
| 48 | no signal | 0 of 3 | 0 of 9 | F27V/D106F |
| 49 | no signal | 0 of 3 | 0 of 9 | G55M/T104Y |
| 50 | no signal | 0 of 3 | 0 of 9 | N30P/Y32V/D62H |
| 51 | no signal | 0 of 3 | 0 of 9 | S31V/Y32P/I34P |
| 52 | no signal | 0 of 3 | 0 of 9 | G33D/G55T/V64N |
| 53 | no signal | 0 of 3 | 0 of 9 | F27Y/D62M/G99C |
| 54 | no signal | 0 of 3 | 0 of 9 | L29Q/G33M/G103I |
| 55 | no signal | 0 of 3 | 3 of 9 | R100S/A102K/D106F |
| 56 | no signal | 0 of 3 | 1 of 9 | N30M/S31M/G55W |
| 57 | no signal | 0 of 3 | 0 of 9 | F27H/G99T/R100T |
| 58 | no signal | 0 of 3 | 0 of 9 | S31L/D62N/F105D |
| 59 | no signal | 0 of 3 | 4 of 9 | G61S/G99D/A102C |
| 60 | no signal | 0 of 3 | 1 of 9 | G26L/F59G/D106Y |
| 61 | no signal | 0 of 3 | 1 of 9 | T28H/Y32N/S53K |
| 62 | no signal | 0 of 3 | 1 of 9 | F27C/G55S/G99D |
| 63 | no signal | 0 of 3 | 5 of 9 | F27E/L29C/G55T |
| 64 | no signal | 0 of 3 | 1 of 9 | F59V/F105T/D106F |
| 65 | no signal | 0 of 3 | 1 of 9 | Y32H/S53Y/V64C |
| 66 | no signal | 0 of 3 | 0 of 9 | I51M/R57S/T58E |
| 67 | no signal | 0 of 3 | 1 of 9 | G33S/I34R/F105V |
| 68 | no signal | 0 of 3 | 0 of 9 | D54W/K65E/T104A |
| 69 | no signal | 0 of 3 | 0 of 9 | L29D/D54W/K65G |
| 70 | no signal | 0 of 3 | 1 of 9 | F59K/S63H/D106W |
| 71 | no signal | 0 of 3 | 0 of 9 | G26C/D54E/G61E |
| 72 | no signal | 0 of 3 | 0 of 9 | G26H/F59R/V64C |
| 73 | no signal | 0 of 3 | 0 of 9 | L29T/I51Y/G61D |
| 74 | no signal | 0 of 3 | 2 of 9 | Y32Q/I34W/T104D |
| 75 | no signal | 0 of 3 | 1 of 9 | R57A/G103Y/D106L |
| 76 | no signal | 0 of 3 | 1 of 9 | T28S/F59P/S107F |
| 77 | no signal | 0 of 3 | 2 of 9 | D62K/G99D/D106A |
| 78 | no signal | 0 of 3 | 0 of 9 | V50N/D62I |

Top 6 of the variants detected in all replicates, tightest first:

| changes | log10 Kd (nM), mean | seen in | signal with controls |
|---|---|---|---|
| G61H/T104E/S107D | 0.26 | 3 of 3 | 0 of 9 |
| S31M/R56E/F59S | 0.50 | 3 of 3 | 0 of 9 |
| F27E/A101N/S107Q | 1.27 | 3 of 3 | 0 of 9 |
| N30S/K65N/F105A | 1.52 | 3 of 3 | 1 of 9 |
| V50I/S53H/G61L | 1.67 | 3 of 3 | 0 of 9 |
| S31N/G61L/T104W | 1.74 | 3 of 3 | 3 of 9 |

In this assay the parent's reference entry averaged 0.65; its copy inside this library read 4.11 (one replicate of three).